Results: US9975933B2, “Tumor tissue-penetrating peptide specific to neuropilin and fusion protein having same peptide fused therein” (AJOU UNIVERSITY INDUSTRY-ACADEMIC COOPERATION FOUNDATION, priority 2013, dated 2018)

How the values were obtained:
[1] = test system: FaDu; assay: In vitro cell growth inhibition, FaDu; assay type: cell-based, human; conditions: 1 μM, 72 hours
[2] = test system: FaDu; assay: Inhibition of cancer cell growth in nude mice, FaDu; assay type: in vivo; conditions: FaDu xenograft, 2.5 and 10 mg/kg intravenously 6 times every 3 days
Experimental: Also, in order to confirm whether such tendency actually affects inhibition of cancer cells, an experiment confirming the inhibition of cancer cell growth was performed in nude mice.

[3] = biological target: FcγR IIIb (Homo sapiens, UniProt O75015); assay: SPR binding of mAb and mAb-TPP to FcγRIIIb
Experimental: Specifically, each b1b2 domain of neuropilin-1 and -2 was diluted with 10 mM Na-acetate buffer (pH 4.0), and fixed onto CMS sensor chips (GE healthcare, USA) in about 1000 response units (RU). […] After bond and dissociation analysis, the regeneration of CMS chip was performed by streaming a buffer (20 Mm NaOH, 1 M NaCl, pH 10.0) at a stream velocity 30 μl/min for 1 minute.

## Cetuximab
[1]
  cell growth inhibition: about 30%
[2]
  inhibition of cancer cell growth (tumor volume): inhibited cancer cell growth
[3]
  Association rate ka: 5.10 ± 0.45 × 10^3 M^−1s^−1
  Dissociation rate kd: 4.20 ± 0.19 × 10^−2 S^−1
[3]; read-out: Binding affinity KD
  Kd: 8.23 µM
